Assay results from ChEMBL document CHEMBL4706531, “Discovery of Novel c-Mesenchymal-Epithelia transition factor and histone deacetylase dual inhibitors” (Eur J Med Chem, 2020).

Chains of the proteins cited; added tags and fusions are not shown. Lines headed by an entry give the natural chain unless they say otherwise; changes in a name come on top.
UniProt P08581: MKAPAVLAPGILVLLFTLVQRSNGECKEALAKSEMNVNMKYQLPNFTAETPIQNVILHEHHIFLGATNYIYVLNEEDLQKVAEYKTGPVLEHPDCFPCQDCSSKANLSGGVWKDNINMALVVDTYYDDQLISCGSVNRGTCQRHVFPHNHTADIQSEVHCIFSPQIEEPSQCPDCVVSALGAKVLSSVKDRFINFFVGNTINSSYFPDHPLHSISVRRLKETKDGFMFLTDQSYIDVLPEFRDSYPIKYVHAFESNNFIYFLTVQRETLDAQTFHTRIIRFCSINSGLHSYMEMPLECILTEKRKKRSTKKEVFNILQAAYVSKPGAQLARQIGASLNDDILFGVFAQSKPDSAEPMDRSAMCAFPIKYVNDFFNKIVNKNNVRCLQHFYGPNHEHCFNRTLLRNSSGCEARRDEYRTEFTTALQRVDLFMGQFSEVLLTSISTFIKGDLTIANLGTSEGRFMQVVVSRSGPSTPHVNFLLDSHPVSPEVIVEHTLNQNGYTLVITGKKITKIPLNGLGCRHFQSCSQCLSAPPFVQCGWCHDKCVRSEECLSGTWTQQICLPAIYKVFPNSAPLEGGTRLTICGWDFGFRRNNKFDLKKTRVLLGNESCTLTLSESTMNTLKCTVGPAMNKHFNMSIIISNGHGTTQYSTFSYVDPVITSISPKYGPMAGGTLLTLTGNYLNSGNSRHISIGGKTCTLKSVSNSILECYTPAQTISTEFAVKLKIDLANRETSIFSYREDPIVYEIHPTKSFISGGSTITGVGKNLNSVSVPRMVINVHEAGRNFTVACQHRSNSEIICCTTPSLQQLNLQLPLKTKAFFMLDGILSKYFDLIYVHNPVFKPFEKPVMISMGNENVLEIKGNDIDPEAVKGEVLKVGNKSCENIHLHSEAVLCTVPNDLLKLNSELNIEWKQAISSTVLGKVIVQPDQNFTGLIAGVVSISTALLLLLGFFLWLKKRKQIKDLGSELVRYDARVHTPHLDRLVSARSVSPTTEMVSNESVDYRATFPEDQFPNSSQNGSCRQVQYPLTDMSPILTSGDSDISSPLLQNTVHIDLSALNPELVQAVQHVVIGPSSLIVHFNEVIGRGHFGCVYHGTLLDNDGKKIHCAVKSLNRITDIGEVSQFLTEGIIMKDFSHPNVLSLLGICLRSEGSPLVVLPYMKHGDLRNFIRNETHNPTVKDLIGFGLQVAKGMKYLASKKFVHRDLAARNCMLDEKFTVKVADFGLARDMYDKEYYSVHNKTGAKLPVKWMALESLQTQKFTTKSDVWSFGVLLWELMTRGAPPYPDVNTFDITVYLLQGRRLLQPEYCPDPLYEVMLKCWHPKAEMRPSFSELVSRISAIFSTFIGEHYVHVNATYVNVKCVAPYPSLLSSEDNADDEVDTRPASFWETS
UniProt Q13547, whole entry: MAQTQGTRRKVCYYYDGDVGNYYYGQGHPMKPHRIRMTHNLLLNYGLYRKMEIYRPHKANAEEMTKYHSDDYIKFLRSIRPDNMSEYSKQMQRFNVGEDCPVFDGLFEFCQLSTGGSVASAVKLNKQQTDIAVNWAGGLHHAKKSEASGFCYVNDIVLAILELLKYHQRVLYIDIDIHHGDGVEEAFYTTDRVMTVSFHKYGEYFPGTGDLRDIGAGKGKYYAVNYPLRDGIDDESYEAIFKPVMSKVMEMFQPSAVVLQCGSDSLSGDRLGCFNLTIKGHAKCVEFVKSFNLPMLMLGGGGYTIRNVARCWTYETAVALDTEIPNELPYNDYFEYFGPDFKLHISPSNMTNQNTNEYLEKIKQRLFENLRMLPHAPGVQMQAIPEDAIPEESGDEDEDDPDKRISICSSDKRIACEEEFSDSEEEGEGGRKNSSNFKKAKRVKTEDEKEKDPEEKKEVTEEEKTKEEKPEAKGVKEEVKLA

Assays:
[1] = biological target: Hepatocyte growth factor receptor (Homo sapiens, UniProt P08581); details: dose 100.0 nM, time 10.0 min
Histone deacetylase 1 = Histone deacetylase 1 (Homo sapiens, UniProt Q13547); details: Sf9, dose 100.0 nM, time 75.0 min

Question: `COc1cc2c(Oc3ccc(NC(=O)c4nn(-c5ccccc5)ccc4=O)cc3)ccnc2cc1OCCCCCCC(=O)NO` was tested. Which inhibition [1] did it give?
Answer: 96.3%

Question: And the inhibition (Histone deacetylase 1)?
Answer: 88%
